Values of other authors, collected in patent publication US6878364B2, “Animal model for flaviviridae infection” (Cornell Research Foundation, Inc., priority 2000, dated 2005).

System: HCV
Details: early and prompt treatment of patients acutely infected with HCV; cited from earlier work

## interferon alpha-2b: an interferon analogue
  patients in whom chronic infection was prevented: 98%
